Series [1] deals with recombinant PI3 kinase α (Homo sapiens (Human), UniProt P42336). As to the kind of experiment: Enzyme Inhibition Assay (HTRF PI3K enzyme assay, TR-FRET). Format: biochemical. Particulars: read-out: PI3 Kinase Inhibition IC50 values at stated Isozyme α; activity range. For orientation: In TR-FRET formats the signal depends on donor and acceptor labels being close together.
For series [2], the target named is recombinant PI3 kinase γ (Homo sapiens (Human), UniProt P48736). The series is described as above. Particulars: read-out: PI3 Kinase Inhibition IC50 values at stated Isozyme γ; activity range. The series is classed as biochemical.
The target of series [3] is recombinant PI3 kinase δ (Homo sapiens (Human), UniProt O00329). The description is as above. The series is classed as biochemical. The note with it: read-out: PI3 Kinase Inhibition IC50 values at stated Isozyme δ; activity range.
Series [4] can be described thus: Stereochemical analysis by chiral stationary phase HPLC (atropisomerism). The series is classed as physicochemical. Particulars: chiral stationary phase HPLC (16 different conditions for the examples).
Series [5] concerns H2O2 induced pAkt in D-U937 cells.

Sequences of proteins named here, by UniProt entry; tags and fusion partners are left off. A change or cut given only in a name is not applied to a line headed by its entry.
UniProt P42336, whole entry: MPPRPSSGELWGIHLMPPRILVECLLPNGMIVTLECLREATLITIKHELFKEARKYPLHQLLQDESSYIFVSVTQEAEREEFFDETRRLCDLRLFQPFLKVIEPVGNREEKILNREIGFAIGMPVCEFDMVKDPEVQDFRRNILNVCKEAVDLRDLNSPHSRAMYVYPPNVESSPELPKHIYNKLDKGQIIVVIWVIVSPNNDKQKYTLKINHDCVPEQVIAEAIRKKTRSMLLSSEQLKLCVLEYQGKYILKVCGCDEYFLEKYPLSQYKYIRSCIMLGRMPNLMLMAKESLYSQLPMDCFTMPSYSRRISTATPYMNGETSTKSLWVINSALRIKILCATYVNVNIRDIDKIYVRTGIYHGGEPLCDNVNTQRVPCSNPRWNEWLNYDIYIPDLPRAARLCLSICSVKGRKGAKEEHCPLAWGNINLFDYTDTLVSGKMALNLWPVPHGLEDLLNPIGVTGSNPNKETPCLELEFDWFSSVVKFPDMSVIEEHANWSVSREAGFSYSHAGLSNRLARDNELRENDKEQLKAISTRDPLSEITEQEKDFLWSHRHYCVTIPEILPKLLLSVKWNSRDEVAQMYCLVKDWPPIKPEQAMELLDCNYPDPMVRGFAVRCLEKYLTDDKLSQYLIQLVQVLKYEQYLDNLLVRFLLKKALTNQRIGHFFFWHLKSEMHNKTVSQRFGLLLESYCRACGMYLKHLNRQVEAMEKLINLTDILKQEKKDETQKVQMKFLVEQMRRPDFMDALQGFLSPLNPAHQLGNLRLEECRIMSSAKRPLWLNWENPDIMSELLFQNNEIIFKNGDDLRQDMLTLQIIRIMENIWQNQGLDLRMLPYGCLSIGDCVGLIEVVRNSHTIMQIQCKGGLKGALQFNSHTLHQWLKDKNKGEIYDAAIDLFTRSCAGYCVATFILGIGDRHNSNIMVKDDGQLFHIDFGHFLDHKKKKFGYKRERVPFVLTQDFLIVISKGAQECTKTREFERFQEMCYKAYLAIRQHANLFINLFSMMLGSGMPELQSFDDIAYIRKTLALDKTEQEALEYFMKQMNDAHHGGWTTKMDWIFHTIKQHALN
UniProt P48736, whole entry: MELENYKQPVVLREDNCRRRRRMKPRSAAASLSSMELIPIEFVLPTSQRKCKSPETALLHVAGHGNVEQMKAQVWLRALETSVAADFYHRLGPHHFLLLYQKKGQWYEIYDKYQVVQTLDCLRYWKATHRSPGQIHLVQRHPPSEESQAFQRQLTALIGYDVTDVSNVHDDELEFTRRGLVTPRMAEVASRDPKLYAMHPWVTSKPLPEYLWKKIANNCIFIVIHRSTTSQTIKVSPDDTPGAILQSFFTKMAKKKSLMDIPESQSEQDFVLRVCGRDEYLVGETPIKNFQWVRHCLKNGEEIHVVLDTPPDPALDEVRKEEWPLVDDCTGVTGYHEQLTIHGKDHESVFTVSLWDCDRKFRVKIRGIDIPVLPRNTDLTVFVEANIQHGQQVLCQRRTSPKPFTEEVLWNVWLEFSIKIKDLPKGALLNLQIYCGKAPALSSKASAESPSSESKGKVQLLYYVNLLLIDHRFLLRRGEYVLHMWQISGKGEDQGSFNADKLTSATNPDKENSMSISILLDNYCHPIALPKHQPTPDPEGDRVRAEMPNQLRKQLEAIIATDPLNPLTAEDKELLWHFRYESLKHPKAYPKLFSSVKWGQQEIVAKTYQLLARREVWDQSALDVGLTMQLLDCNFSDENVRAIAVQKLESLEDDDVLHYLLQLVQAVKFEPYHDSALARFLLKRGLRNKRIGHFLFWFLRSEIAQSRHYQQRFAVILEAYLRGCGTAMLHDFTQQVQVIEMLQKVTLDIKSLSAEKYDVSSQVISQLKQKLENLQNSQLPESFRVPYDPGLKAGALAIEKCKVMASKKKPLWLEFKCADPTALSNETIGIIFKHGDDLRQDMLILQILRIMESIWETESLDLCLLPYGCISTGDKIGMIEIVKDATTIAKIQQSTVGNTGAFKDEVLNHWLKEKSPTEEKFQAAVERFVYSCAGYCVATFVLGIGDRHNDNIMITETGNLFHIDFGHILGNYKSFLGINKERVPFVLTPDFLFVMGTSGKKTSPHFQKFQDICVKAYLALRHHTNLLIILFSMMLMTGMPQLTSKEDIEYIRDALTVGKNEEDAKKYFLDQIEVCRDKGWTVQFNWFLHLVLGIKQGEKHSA
UniProt O00329, whole entry: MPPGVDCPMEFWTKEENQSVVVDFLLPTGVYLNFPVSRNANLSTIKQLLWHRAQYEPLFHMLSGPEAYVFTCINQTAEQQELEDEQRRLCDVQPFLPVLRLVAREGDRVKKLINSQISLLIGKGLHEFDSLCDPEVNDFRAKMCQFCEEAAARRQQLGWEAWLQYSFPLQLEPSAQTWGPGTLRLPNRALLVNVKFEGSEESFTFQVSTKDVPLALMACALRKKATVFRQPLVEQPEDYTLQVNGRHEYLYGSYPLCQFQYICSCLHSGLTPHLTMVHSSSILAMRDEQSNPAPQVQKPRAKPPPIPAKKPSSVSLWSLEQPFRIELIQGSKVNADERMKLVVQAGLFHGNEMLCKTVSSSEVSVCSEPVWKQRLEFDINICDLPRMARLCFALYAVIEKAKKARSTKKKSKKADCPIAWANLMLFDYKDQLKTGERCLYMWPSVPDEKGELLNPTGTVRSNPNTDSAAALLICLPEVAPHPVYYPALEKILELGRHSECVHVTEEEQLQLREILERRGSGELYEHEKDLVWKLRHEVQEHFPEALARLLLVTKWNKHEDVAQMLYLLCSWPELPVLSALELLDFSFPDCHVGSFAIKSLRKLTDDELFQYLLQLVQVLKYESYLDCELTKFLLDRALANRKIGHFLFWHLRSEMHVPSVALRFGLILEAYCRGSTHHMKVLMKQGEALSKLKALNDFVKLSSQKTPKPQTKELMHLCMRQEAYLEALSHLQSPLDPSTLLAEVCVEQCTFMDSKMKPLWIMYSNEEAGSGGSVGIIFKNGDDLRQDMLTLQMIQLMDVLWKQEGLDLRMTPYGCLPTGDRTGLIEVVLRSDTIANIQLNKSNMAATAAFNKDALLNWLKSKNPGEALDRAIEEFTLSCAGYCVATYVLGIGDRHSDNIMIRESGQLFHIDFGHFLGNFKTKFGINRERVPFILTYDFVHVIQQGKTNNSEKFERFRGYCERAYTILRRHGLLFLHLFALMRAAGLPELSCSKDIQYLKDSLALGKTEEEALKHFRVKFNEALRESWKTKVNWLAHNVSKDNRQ
UniProt P27986, whole entry partner: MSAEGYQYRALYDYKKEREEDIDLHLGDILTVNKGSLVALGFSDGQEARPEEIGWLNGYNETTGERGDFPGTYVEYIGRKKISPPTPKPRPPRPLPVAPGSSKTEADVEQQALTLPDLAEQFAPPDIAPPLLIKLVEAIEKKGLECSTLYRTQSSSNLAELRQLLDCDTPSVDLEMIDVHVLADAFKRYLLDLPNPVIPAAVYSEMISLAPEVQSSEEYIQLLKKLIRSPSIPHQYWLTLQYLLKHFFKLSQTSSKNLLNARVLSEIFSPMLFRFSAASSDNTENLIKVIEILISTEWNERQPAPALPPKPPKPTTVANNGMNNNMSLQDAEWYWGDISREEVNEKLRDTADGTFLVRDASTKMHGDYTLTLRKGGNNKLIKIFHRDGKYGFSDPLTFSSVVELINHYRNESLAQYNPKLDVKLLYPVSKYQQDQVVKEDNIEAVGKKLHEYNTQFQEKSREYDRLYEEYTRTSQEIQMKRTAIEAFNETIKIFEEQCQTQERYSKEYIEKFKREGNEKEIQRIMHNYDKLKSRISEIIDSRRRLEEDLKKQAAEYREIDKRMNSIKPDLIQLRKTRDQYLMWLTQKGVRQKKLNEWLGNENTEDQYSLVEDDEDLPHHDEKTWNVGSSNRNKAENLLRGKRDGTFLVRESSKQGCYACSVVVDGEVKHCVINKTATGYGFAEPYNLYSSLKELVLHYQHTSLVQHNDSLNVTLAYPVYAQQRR

Some results are limits rather than exact numbers.

Take `C#Cc1cccc2nc(Cn3nc(-c4ccc(O)cc4)c4c(N)ncnc43)n(Cc3cccc(C#N)c3)c(=O)c12`: the IC50 is 50 to 1000 nM in series [1], 50 to 1000 nM in series [2], below 50 nM in series [3] and below 10 nM in series [5]. Moreover, in series [4], the “atropisomerism by chiral stationary phase HPLC” value is “no evidence for atropisomerism was observed”.
Turning to `Nc1ncnc2c1c(-c1ccc(O)cc1)nn2Cc1nc2cccc(C#CCCCC(=O)NC3CCNC3)c2c(=O)n1Cc1ccccc1Cl` (stereo not drawn), the IC50 in series [1] was 50 to 1000 nM; in series [2], below 50 nM; in series [3], below 50 nM; in series [5] it was below 10 nM.

The IC50 is the midpoint of a concentration-inhibition curve.

For the origin of these results see patent publication US9321773B2, “Compounds” (Respivert Ltd, priority 2009, dated 2016).
